The results in this text go back to PubChem BioAssay AID463115 (University of Pittsburgh Molecular Library Screening Center, 2010).

By UniProt entry, the sequences of proteins in these tests, tags left out. Residues count along the entry.
UniProt P09958, 108-714 limits assumed: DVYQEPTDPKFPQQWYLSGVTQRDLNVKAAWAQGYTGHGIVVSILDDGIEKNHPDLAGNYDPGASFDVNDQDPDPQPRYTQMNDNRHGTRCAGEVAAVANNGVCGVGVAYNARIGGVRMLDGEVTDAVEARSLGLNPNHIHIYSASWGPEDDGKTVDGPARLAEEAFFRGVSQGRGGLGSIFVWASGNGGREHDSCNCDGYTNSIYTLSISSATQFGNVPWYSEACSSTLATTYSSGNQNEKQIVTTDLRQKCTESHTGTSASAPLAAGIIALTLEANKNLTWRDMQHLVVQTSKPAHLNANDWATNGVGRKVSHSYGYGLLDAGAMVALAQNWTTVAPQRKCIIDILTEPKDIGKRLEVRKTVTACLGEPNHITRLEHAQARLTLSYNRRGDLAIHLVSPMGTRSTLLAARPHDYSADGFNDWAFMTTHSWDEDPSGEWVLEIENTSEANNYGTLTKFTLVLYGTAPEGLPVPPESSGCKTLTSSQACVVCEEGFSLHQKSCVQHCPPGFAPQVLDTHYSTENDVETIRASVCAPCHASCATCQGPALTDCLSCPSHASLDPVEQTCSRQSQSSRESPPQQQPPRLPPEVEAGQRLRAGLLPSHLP

By inhibition is commonly meant the change of the read-out against control, counted positive when it falls.

Structures are written as SMILES. The list shows a part of the results, in another mix than the full data. Some of these compounds have results that are not shown, active ones among them. Activity calls are given as the source filed them. No stated cut-off is given here; in the data, active means inhibition above about 25%; inactive means the rest.

The experiment deals with Furin (Homo sapiens) (UniProt P09958). Put plainly: furin protease activity blockers – biochemical, fluorescence intensity, primary screen (AID 463115). The following applies: purified furin, fluorogenic substrate cleavage, stronger effect = higher value; at 30 µM unless noted.
Consider `O=C(NCC1(N2CCCCC2)CCCCC1)c1cc([N+](=O)[O-])ccc1Cl`, for which the inhibition is inactive: -15.6%. With `CCN(CC)CC(C)C(C)OC(=O)C(O)(c1ccccc1)c1ccccc1` (stereo unspecified) the figure was inactive: -1.87%; with `CC(C)N1C(=O)CC2(CCN(CCOC(=O)C(O)(c3ccccc3)c3ccccc3)CC2)C1=O`, inactive: -8.37%. With `CN(C)C1CCCC1OC(=O)C(O)(c1ccccc1)c1ccccc1` (stereo unspecified), the inhibition was inactive: -12.6%. With `Cc1ccccc1C(=O)NCC1(N2CCCCC2)CCCCC1` the figure was inactive: -18.5%. For `C=CCN1CCN(CCOC(=O)C(O)(c2ccccc2)c2ccccc2)CC1` the value was inactive: -15.9%.

In the case of `CCN1CCCC(OC(=O)C2(O)c3ccccc3C=Cc3ccccc32)C1` (stereo unspecified), the inhibition is inactive: -21.3%.

Regarding `COc1cccc(C(=O)NCC2(N3CCCCC3)CCCCC2)c1`, the inhibition was inactive: -22%. As for `O=C(OC1CN2CCC1CC2)C(CO)(c1ccccc1)c1ccccc1` (stereo unspecified), the inhibition was inactive: -23.9% [at 20 µM]. For `COc1ccc(Br)c(C(=O)NCC2(N3CCCCC3)CCCCC2)c1` the value was inactive: -18.7%. With `CN(C)c1cccc(C(=O)NCC2(N(C)C)CCCCC2)c1` the figure was inactive: -22.1%.
